Results from patent US20110263664A1, “Inhibitors of PIM-1 Protein Kinases, Compositions and Methods for Treating Prostate Cancer” (MUSC FOUNDATION FOR RESEARCH DEVELOPMENT, priority 2007, published 2011).

Chains of the proteins cited; added tags and fusions are not shown. Lines headed by an entry give the natural chain unless they say otherwise; changes in a name come on top.
UniProt Q9P1W9: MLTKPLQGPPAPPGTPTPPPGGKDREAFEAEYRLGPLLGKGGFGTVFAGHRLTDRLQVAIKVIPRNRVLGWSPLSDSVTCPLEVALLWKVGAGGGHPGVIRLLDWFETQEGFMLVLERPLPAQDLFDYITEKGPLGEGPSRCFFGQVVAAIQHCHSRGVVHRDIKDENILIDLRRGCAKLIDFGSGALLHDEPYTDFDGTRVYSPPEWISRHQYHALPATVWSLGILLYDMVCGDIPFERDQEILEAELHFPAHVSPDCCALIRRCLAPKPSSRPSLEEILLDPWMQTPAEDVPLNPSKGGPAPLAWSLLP
UniProt P11309, whole entry: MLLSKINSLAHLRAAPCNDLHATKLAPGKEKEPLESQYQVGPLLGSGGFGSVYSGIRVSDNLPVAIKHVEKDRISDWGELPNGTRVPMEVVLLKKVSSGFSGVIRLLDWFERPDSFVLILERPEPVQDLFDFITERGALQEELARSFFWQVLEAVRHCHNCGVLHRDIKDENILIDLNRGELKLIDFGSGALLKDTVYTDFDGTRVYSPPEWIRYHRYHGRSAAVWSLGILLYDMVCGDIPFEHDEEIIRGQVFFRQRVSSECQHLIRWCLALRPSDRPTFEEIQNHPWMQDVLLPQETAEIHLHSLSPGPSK

Columns and labels:
PIM2 = PIM2 (Homo sapiens, UniProt Q9P1W9); assay: Pim-2 kinase IC50, Table 2; type: biochemical
PIM1 = PIM1 (Homo sapiens, UniProt P11309); assay: Pim-1 protein kinase assay (Procedure 1), Table 1; type: biochemical; design: purchased Upstate 14-573

IC50 (PIM2)	IC50 (PIM1)	SMILES
40 nM	–	COc1cccc(/C=C2\SC(=O)NC2=O)c1 [Compound D6]
–	13 ± 10 nM	O=C1NC(=O)/C(=C/c2ccc(F)cc2)S1 [Compound D9]
90 ± 40 nM	–	O=C1NC(=O)/C(=C/c2ccc(Br)cc2)S1 [Compound D11]
–	60 ± 20 nM	Cc1ccc(/C=C2\SC(=O)NC2=O)cc1 [Compound D12]
–	300 ± 200 nM	O=C1NC(=O)/C(=C/c2ccc(OC(F)(F)F)cc2)S1 [Compound D19]
